From patent publication US11472877 (Alector, dated 2022) come the findings set out here.

By UniProt entry, the sequences of proteins in these tests, tags left out. Residues count along the entry.
UniProt Q9NP99, 21-205 limits assumed: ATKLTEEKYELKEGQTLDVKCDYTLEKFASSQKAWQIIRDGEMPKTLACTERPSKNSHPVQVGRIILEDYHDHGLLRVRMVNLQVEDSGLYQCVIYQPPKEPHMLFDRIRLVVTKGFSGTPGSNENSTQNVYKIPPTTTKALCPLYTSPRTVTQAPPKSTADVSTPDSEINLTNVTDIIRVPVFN
UniProt Q9NP99, 21-234: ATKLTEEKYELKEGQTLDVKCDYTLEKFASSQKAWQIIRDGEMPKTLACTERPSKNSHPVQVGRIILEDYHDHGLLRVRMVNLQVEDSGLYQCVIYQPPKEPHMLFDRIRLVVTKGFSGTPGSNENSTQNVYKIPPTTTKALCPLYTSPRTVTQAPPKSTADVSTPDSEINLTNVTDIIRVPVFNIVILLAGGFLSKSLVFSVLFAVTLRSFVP

First the molecules themselves.
B1: T1-14 Fab (Fab, V domains shown)
VH: QVQLVESGGGVVQPGRSLRLSCAASGFTFSSYGMHWVRQAPGKGLEWVAVISYDGSNKYYADSVKGRFTISRDNSKNTLYLQMNSLRAEDTAVYYCARRSSGDYLDVWGQGTMVTVSS
VL: not shown
notes: Fab of T1-14
B2: T1-11 Fab (Fab, V domains shown)
VH: QLQLQESGPGLVKPSETLSLTCTVSGGSISSSSYYWGWIRQPPGKGLEWIGSIYYSGSTYYNPSLKSRVTISVDTSKNQFSLKLSSVTAADTAVYYCARSGEYGFDLWGRGTLVTVSS
VL: not shown
notes: Fab of T1-11
B3: T1-71 Fab (Fab, V domains shown)
VH: EVQLVESGGGLVQPGRSLRLSCAASGFTFGDYAMHWVRQAPGKGLEWVSGISWNSGSIGYADSVKGRFTISRDNAKNSLYLQMNSLRAEDTALYYCAKGPRRTSHLDIWGQGTMVTVSS
VL: DIQMTQSPSSVSASVGDRVTITCRASQGIDSWLAWYQQKPGKAPKLLIYAASSLQSGVPSRFSGSGSGTDFTLTISSLQPEDFATYYCQQATSLPLTFGGGTKVEIK
notes: Fab of T1-71
B4: T1-18 Fab (Fab, V domains shown)
VH: B3 VH with G30D, S57D, S78T, R102M, T103V, S104T, I108V
VL: DIQMTQSPSTLSASVGDRVTITCRASQSISSWLAWYQQKPGKAPKLLIYKASSLESGVPSRFSGSGSGTEFTLTISSLQPDDFATYYCQQDSIYPITFGGGTKVEIK
notes: Fab of T1-18
B5: T1-76 Fab (Fab, V domains shown)
VH: not shown
VL: B4 VL with K50D, D91H, I93T, P95S, I96W
notes: Fab of T1-76
B6: T1-34 Fab (Fab, V domains shown)
VH: EVQLVESGGGLVKPGGSLRLSCAASGFTFSSYSMNWVRQAPGKGLEWVSSISSSSNYIYYADSVKGRFTISRDNAKNSLYLQMNSLKAEDTAVYYCARRPDDRRGLFQHWGQGTLVTVSS
VL: B4 VL with S30N, Y49S, K50D, D91Y, S92G, I93P, I96Y
notes: Fab of T1-34
B7: T1-78 Fab (Fab, V domains shown)
VH: QLQLQESGPGLVKPSETLSLTCTVSGGSISSSSYYWGWIRQPPGKGLEWIGSIYYSGSTYYNPSLKSRVTISVDTSKNQFSLKLSSVTAADTAVYYCARDLGQYEGYFDLWGRGTLVTVSS
VL: not shown
notes: Fab of T1-78
B8: T1-7 Fab (Fab, V domains shown)
VH: QVQLVQSGAEVKKPGASVKVSCKASGYTFTSYYMHWVRQAPGQGLEWMGIINPSGGSTSYAQKFQGRVTMTRDTSTSTVYMELSSLRSEDTAVYYCARGLIYGDAFDYWGQGTLVTVSS
VL: not shown
notes: Fab of T1-7
B9: T1-17 Fab (Fab, V domains shown)
VH: QVQLQESGPGLVKPSETLSLTCTVSGGSISSYYWSWIRQPPGKGLEWIGSIYYSGSTNYNPSLKSRVTISVDTSKNQFSLKLSSVTAADTAVYYCARGAPGGRHNWFDPWGQGTLVTVSS
VL: DIQMTQSPSSLSASVGDRVTITCQASQDISNYLNWYQQKPGKAPKLLIYDASNLATGVPSRFSGSGSGTDFTFTISSLQPEDIATYYCQQSDIHPRTFGGGTKVEIK
notes: Fab of T1-17
B10: T1-36 Fab (Fab, V domains shown)
VH: QVQLVESGGGVVQPGRSLRLSCAASGFTFSSYGMHWVRQAPGKGLEWVAVISYDGSNKYYADSVKGRFTISRDNSKNTLYLQMNSLRAEDTAVYYCARPDYYSSRGVFDIWGQGTMVTVSS
VL: not shown
notes: Fab of T1-36
B11: T1-21 (antibody, IgG1, V domains shown)
VH: EVQLVESGGGLVQPGGSLRLSCAASGFTFSSYSMNWVRQAPGKGLEWVSYISSSSSTIYYADSVKGRFTISRDNAKNSLYLQMNSLRAEDTAVYYCARGGPLGYGDYKGMDVWGQGTTVTVSS
VL: DIQLTQSPSSLSASVGDRVTITCRASQSISSFLNWYQQKPGKAPKLLIYAASSLQSGVPSRFSGSGSGTDFTLTISSLQPEDFATYYCQQSYSDLTFGGGTKVEIK
notes: huIgG1; also called TI-21; ADI-19088
B12: T1-30 (antibody, IgG1, V domains shown)
VH: QLQLQESGPGLVKPSETLSLTCTVSGGSISSSSYYWGWIRQPPGKGLEWIGSIYYSGSTYYNPSLKSRVTISVDTSKNQFSLKLSSVTAADTAVYYCARGRKAAAGIDEAEYFQHWGQGTLVTVSS
VL: B11 VL with L4M, L11V, S28G, F32W, N34A, S91V, Y92I, D94F, L95P
notes: huIgG1; also called TI-30
B13: T1-27 (antibody, IgG1, V domains shown)
VH: QVQLQESGPGLVKPSQTLSLTCTVSGGSISSGGYYWSWIRQHPGKGLEWIGYIYYSGSTYYNPSLKSRVTISVDTSKNQFSLKLSSVTAADTAVYYCARDSSIAGRATLSFDYWGQGTLVTVSS
VL: B3 VL with V11L, G28S, D30S, W32Y, A34N, A91S, T92F, S93Y, L94D, L96I
notes: huIgG1; also called TI-27
B14: T1-16 (antibody, IgG1, V domains shown)
VH: B3 VH with G30D, R102M, T103S, S104G, H105W, L106W, D107A, I108D, M114L
VL: B3 VL with D30S, T92D, S93T, L96I
notes: huIgG1; also called TI-16; ADI-19083
B15: T1-32 (antibody, IgG1, V domains shown)
VH: QLQLQESGPGLVKPSETLSLTCTVSGGSISSSSYYWGWIRQPPGKGLEWIGSIYYSGSTYYNPSLKSRVTISVDTSKNQFSLKLSSVTAADTAVYYCARDAPAVVGESPAFDIWGQGTMVTVSS
VL: B3 VL with V11L, G28S, D30S, S31R, W32Y, A34N, A91S, T92L, S93D, L96F
notes: huIgG1; also called TI-32
B16: T1-19 (antibody, IgG1, V domains shown)
VH: EVQLVESGGGLVQPGGSLRLSCAASGFTFSDHHMDWVRQAPGKGLEWVGRTRNKANSYTTEYAASVKGRFTISRDDSKNSLYLQMNSLKTEDTAVYYCARGPLGYKLWGQGTLVTVSS
VL: B3 VL with D30S, S53N, T92N, L94F
notes: huIgG1; also called TI-19; ADI-19086
B17: T1-25 (antibody, IgG1, V domains shown)
VH: B3 VH with G30D, P100G, R101S, T103Y, L106F, I108Y, M114L
VL: EIVLTQSPATLSLSPGERATLSCRASQSVSSYLAWYQQKPGQAPRLLIYDASNRATGIPARFSGSGSGTDFTLTISSLEPEDFAVYYCQQRSVLPLTFGGGTKVEIK
notes: huIgG1; also called TI-25; ADI-19092
B18: T1-24 (antibody, IgG1, V domains shown)
VH: B3 VH with G30D, S52T, R102L, T103L, H105A, I108V
VL: B4 VL
notes: huIgG1; also called TI-24; ADI-19150
B19: T1-23 (antibody, IgG1, V domains shown)
VH: B3 VH with G30D, S52T, R102L, T103L, H105A, I108V
VL: B4 VL with S30G, D91H, S92Q, I93S, Y94F, P95S, I96P
notes: huIgG1; also called TI-23; ADI-19090
B20: T1-20 (antibody, IgG1, V domains shown)
VH: EVQLVESGGGLVQPGGSLRLSCAASGFTFSSYWMSWVRQAPGKGLEWVANIKQDGSEKYYVDSVKGRFTISRDNAKNSLYLQMNSLRAEDTAVYYCARDAPQLGLDVWGQGTMVTVSS
VL: not shown
notes: huIgG1; also called TI-20; ADI-19087
B21: T1-29 (antibody, IgG1, V domains shown)
VH: QLQLQESGPGLVKPSETLSLTCTVSGGSISSSSYYWGWIRQPPGKGLEWIGSIYYSGSTYYNPSLKSRVTISVDTSKNQFSLKLSSVTAADTAVYYCARDGGGTAQADGAYYYGMDVWGQGTTVTVSS
VL: B17 VL with R91G, S92V, V93N, L94Y, L96F
notes: huIgG1; also called TI-29

Substitutions are numbered along the chain they refer to.

The target in one experiment is T1, Human TREM1-Fc (human, UniProt Q9NP99 21-205, limits assumed).
T1 construct: not shown: Fc part
The experiment is described as follows: Fab on human TREM1-Fc, monovalent; method not stated.
As usually defined, the Kd is the equilibrium constant for the complex coming apart. A lower Kd goes with higher affinity. One may read the koff as the rate constant with which the complex falls apart. High values mean a short-lived complex, low ones a long-lived complex. As a reminder, the kon is the rate constant with which the complex forms. Low values mean slow association, high ones fast association. For the molecule B1, binding was put at a Kd of 213 nM, the koff was 0.00862 s⁻¹ and the kon amounted to 40600 M⁻¹ s⁻¹.
On to B2, for which the affinity, expressed as Kd, was 70.4 nM; the koff amounted to 0.00566 s⁻¹; the kon is 80400 M⁻¹ s⁻¹.
The corresponding values for B3 are 22.3 nM, 0.0274 s⁻¹ and 1.23e+06 M⁻¹ s⁻¹.
B4 yielded a Kd of 186 nM, a koff of 0.0146 s⁻¹ and a kon of 78800 M⁻¹ s⁻¹.
The corresponding values for B5 are 29.3 nM, 0.0217 s⁻¹ and 742000 M⁻¹ s⁻¹.
The corresponding values for B6 are 4.26 nM, 0.000458 s⁻¹ and 108000 M⁻¹ s⁻¹.
Taken in the same sequence, the figures for B7 were 36.1 nM, 0.01 s⁻¹ and 277000 M⁻¹ s⁻¹.
B8 displayed a Kd of 31.9 nM, a koff of 0.00636 s⁻¹ and a kon of 199000 M⁻¹ s⁻¹.
The corresponding values for B9 are 91.4 nM, 0.00748 s⁻¹ and 81900 M⁻¹ s⁻¹.
The corresponding values for B10 are 7.37 nM, 0.00292 s⁻¹ and 396000 M⁻¹ s⁻¹.

A further experiment addresses T2, human TREM1 on cells (human, UniProt Q9NP99 21-234).
T2 construct: Some reporter cells carry a human TREM1/CD3 zeta fusion instead; also called CHO-huT1; CHO-hT1
The experiment can be described thus: FACS, CHO human TREM1. (In general: In flow cytometry, cells or beads pass a laser one at a time.)
Take B11: the “FOB Fold Over Background” value worked out at 231 fold.
On the same count and under the same terms, then B12, with 19.4 fold; and B13, with 362 fold; and B14, with 298 fold.
On the same count and under the same terms, under B15 stands 27.2 fold; under B16, 420 fold.
The same measure, in the same setting: then B17, with 452 fold; and B18, with 489 fold.
With B19, the “FOB Fold Over Background” value is 448 fold.
On to B20, for which the “FOB Fold Over Background” value came out at 408 fold.
Take B21: the “FOB Fold Over Background” value came out at 7.9 fold.

The target of the next experiment is T2, human TREM1 on cells. The experiment can be described thus: FACS, human neutrophils.
As to B11, the “FOB Fold Over Background” value is 1.2 fold.
Turning to B12, the “FOB Fold Over Background” value stood at 1.1 fold.
The same measure, in the same setting: under B13 stands 1.4 fold; under B14, 1.6 fold; under B15, 1 fold.
Still for that read-out and setting: then B16, with 1.4 fold.
Regarding B17, the “FOB Fold Over Background” value amounted to 2.6 fold.
On the same count and under the same terms, under B18 stands 6.9 fold; under B19, 2.6 fold; under B20, 1.3 fold.
With B21, the “FOB Fold Over Background” value was determined as 1.1 fold.
